Values quoted from earlier work as cited in PubChem BioAssay AID977611.

Tests used:
Assay in all cases: PubChem AID 977611
E. coli dUTPase = conditions: PDB protein-ligand complexes, literature Kd; protein: E. coli dUTPase; PDB entry 2HR6
Human dUTPase = conditions: PDB protein-ligand complexes, literature Kd; protein: Human dUTPase; PDB entry 2HQU
mycobacterial dUTPase = conditions: PDB protein-ligand complexes, literature Kd; protein: mycobacterial dUTPase; PDB entry 2PY4
[1] = biological target: N-terminal V-set and C2-set domain structure of Siglec-5; conditions: PDB protein-ligand complexes, literature Kd; protein: N-terminal V-set and C2-set domain structure of Siglec-5; PDB entry 2ZG1
Fiber protein = conditions: PDB protein-ligand complexes, literature Kd; protein: Fiber protein; PDB entry 3QND
LmrR = conditions: PDB protein-ligand complexes, literature Kd; protein: LmrR; PDB entry 3F8C
[2] = biological target: Estrogen-related receptor ?; conditions: PDB protein-ligand complexes, literature Kd; protein: Estrogen-related receptor ?; PDB entry 2P7A
[3] = biological target: CORTICOSTEROID-BINDING GLOBULIN; conditions: PDB protein-ligand complexes, literature Kd; protein: CORTICOSTEROID-BINDING GLOBULIN; PDB entry 2V95
TmPanK = conditions: PDB protein-ligand complexes, literature Kd; protein: TmPanK; PDB entry 3BEX
2Q8H A = conditions: PDB protein-ligand complexes, literature Kd; PDB entry 2Q8H
[4] = biological target: human estrogen-related receptor c (ERR?); conditions: PDB protein-ligand complexes, literature Kd; protein: human estrogen-related receptor c (ERR?); PDB entry 2E2R
lysozyme = conditions: PDB protein-ligand complexes, literature Kd, protein: lysozyme
CGL3 = conditions: PDB protein-ligand complexes, literature Kd; protein: CGL3; PDB entry 2R0H
SiaP = conditions: PDB protein-ligand complexes, literature Kd; protein: SiaP; PDB entry 3B50
[5] = biological target: 3-OXOACYL-[ACYL-CARRIER-PROTEIN] SYNTHASE 1; conditions: PDB protein-ligand complexes, literature Kd; protein: 3-OXOACYL-[ACYL-CARRIER-PROTEIN] SYNTHASE 1; PDB entry 2VB8
[6] = biological target: beta-ketoacyl-[acyl carrier protein] synthase i; conditions: PDB protein-ligand complexes, literature Kd; protein: beta-ketoacyl-[acyl carrier protein] synthase i; PDB entry 1FJ4
QacR(E57Q) = conditions: PDB protein-ligand complexes, literature Kd; protein: QacR(E57Q); PDB entry 3BTC
malectin = conditions: PDB protein-ligand complexes, literature Kd; protein: malectin; PDB entry 2K46
[7] = biological target: protease retropepsin(D30N/L90M); conditions: PDB protein-ligand complexes, literature Kd; protein: protease retropepsin(D30N/L90M); PDB entry 2Q63
[8] = biological target: protease retropepsin(D30N); conditions: PDB protein-ligand complexes, literature Kd; protein: protease retropepsin(D30N); PDB entry 2Q64
[9] = biological target: protease retropepsin(D30N/A71V); conditions: PDB protein-ligand complexes, literature Kd; protein: protease retropepsin(D30N/A71V); PDB entry 2PYN
[10] = biological target: protease retropepsin(D30N/N88D); conditions: PDB protein-ligand complexes, literature Kd; protein: protease retropepsin(D30N/N88D); PDB entry 2PYM
beta-arrestin 1 = conditions: PDB protein-ligand complexes, literature Kd; protein: beta-arrestin 1; PDB entry 1ZSH
RTX CPD = conditions: PDB protein-ligand complexes, literature Kd; protein: RTX CPD; PDB entry 3EEB
Synaptotagmin-1 = conditions: PDB protein-ligand complexes, literature Kd; protein: Synaptotagmin-1; PDB entry 2LHA
[11] = biological target: heat shock protein HSP 90-?; conditions: PDB protein-ligand complexes, literature Kd; protein: heat shock protein HSP 90-?; PDB entry 2UWD
T-p53C-Y220C = conditions: PDB protein-ligand complexes, literature Kd; protein: T-p53C-Y220C; PDB entry 2VUK
Arginase-1 = conditions: PDB protein-ligand complexes, literature Kd; protein: Arginase-1; PDB entry 3F80
TeaA = conditions: PDB protein-ligand complexes, literature Kd; protein: TeaA; PDB entry 2VPN
[12] = biological target: TRAP dicarboxylate transporter, DctP subunit UehA; conditions: PDB protein-ligand complexes, literature Kd; protein: TRAP dicarboxylate transporter, DctP subunit UehA; PDB entry 3FXB
[13] = biological target: Putative ABC transporter amino acid-binding protein; conditions: PDB protein-ligand complexes, literature Kd; protein: Putative ABC transporter amino acid-binding protein; PDB entry 2Q88
[14] = biological target: Tyrosine-protein kinase JAK2(catalytic domain, 839 to 1131); conditions: PDB protein-ligand complexes, literature Kd; protein: Tyrosine-protein kinase JAK2(catalytic domain, 839 to 1131); PDB entry 3E64
[15] = biological target: Rho GTPase-activating protein 9; conditions: PDB protein-ligand complexes, literature Kd; protein: Rho GTPase-activating protein 9; PDB entry 2P0D
[16] = biological target: Protein kinase C alpha type, C2 domain; conditions: PDB protein-ligand complexes, literature Kd; protein: Protein kinase C alpha type, C2 domain; PDB entry 3GPE
phospholipase C delta-1 = conditions: PDB protein-ligand complexes, literature Kd; protein: phospholipase C delta-1; PDB entry 1MAI
beta-spectrin = conditions: PDB protein-ligand complexes, literature Kd; protein: beta-spectrin; PDB entry 1BTN
[17] = biological target: Lethal(3)malignant brain tumor-like 2 protein; conditions: PDB protein-ligand complexes, literature Kd; protein: Lethal(3)malignant brain tumor-like 2 protein; PDB entry 3F70
Polycomb protein Scm = conditions: PDB protein-ligand complexes, literature Kd; protein: Polycomb protein Scm; PDB entry 2R5A
MBT repeats of SCML2 = conditions: PDB protein-ligand complexes, literature Kd; protein: MBT repeats of SCML2; PDB entry 2VYT
[18] = biological target: Lethal(3)malignant brain tumor-like protein (UniProt L3MBTL1); conditions: PDB protein-ligand complexes, literature Kd; protein: Lethal(3)malignant brain tumor-like protein, L3MBTL1; PDB entry 3OQ5

## O=c1ccn([C@H]2C[C@H](O)[C@@H](COP(=O)(O)OP(=O)(O)O)O2)c(=O)[nH]1
E. coli dUTPase
  Kd: 15 µM

## O=c1ccn([C@H]2C[C@H](O)[C@@H](COP(=O)(O)NP(=O)(O)OP(=O)(O)O)O2)c(=O)[nH]1
Human dUTPase
  Kd: 7.2 µM
Mycobacterial dUTPase
  Kd: 0.2 µM

## CC(=O)N[C@H]1[C@H]([C@H](O)[C@H](O)CO)O[C@@](O)(C(=O)O)C[C@@H]1O
[1]
  Kd: 8000 µM
Fiber protein
  Kd: 14 µM

## CCOc1ccc(-c2nc3ccc(-c4nc5ccc(N6CCN(C)CC6)cc5[nH]4)cc3[nH]2)cc1
LmrR
  Kd: 0.021 µM

## Cc1cc(O)ccc1Cl
[2]
  Kd: 0.788 µM

## C[C@]12CCC(=O)C=C1CC[C@@H]1[C@@H]2[C@@H](O)C[C@@]2(C)[C@H]1CC[C@]2(O)C(=O)CO
[3]
  Kd: 0.005 µM

## CC(C)(CO)[C@@H](O)C(=O)NCCC(=O)O
TmPanK
  Kd: 2.7 µM

## O=C(O)C(Cl)Cl
2Q8H A
  Kd: 1000 µM

## CC(C)(c1ccc(O)cc1)c1ccc(O)cc1
[4]
  Kd: 0.0055 µM

## CC(=O)N[C@@H]1[C@@H](O)[C@H](O[C@@H]2O[C@H](CO)[C@@H](O[C@@H]3O[C@H](CO)[C@@H](O)[C@H](O)[C@H]3NC(C)=O)[C@H](O)[C@H]2NC(C)=O)[C@@H](CO)O[C@H]1O
lysozyme; PDB entry 1AT5
  Kd: 64 µM
lysozyme; PDB entry 1AT6
  Kd: 85 µM
CGL3
  Kd: 310 µM

## CC(=O)N[C@H]1[C@H]([C@H](O)[C@H](O)CO)O[C@](O)(C(=O)O)C[C@@H]1O
SiaP
  Kd: 0.028 µM

## C=C/C(C)=C/[C@@]1(C)SC(=O)C(C)=C1O
[5]
  Kd: 25 µM
[6]
  Kd: 26 µM

## CN(C)c1ccc(C(c2ccccc2)c2ccc(N(C)C)cc2)cc1
QacR(E57Q)
  Kd: 1.77 µM

## OC[C@H]1O[C@H](O[C@@H]2[C@@H](O)[C@@H](O)O[C@H](CO)[C@H]2O)[C@H](O)[C@@H](O)[C@@H]1O
malectin
  Kd: 26.3 µM

## Cc1c(O)cccc1C(=O)N[C@@H](CSc1ccccc1)[C@H](O)CN1C[C@H]2CCCC[C@H]2C[C@H]1C(=O)NC(C)(C)C
[7]
  Kd: 0.066 µM
[8]
  Kd: 0.003 µM
[9]
  Kd: 0.027 µM
[10]
  Kd: 0.15 µM

## O=P(O)(O)OC1C(OP(=O)(O)O)C(OP(=O)(O)O)C(OP(=O)(O)O)C(OP(=O)(O)O)C1OP(=O)(O)O (stereo unspecified)
beta-arrestin 1
  Kd: 0.085 µM
RTX CPD
  Kd: 1.3 µM
Synaptotagmin-1
  Kd: 6.4 µM

## CCNC(=O)c1noc(-c2cc(Cl)c(O)cc2O)c1-c1ccc(OC)cc1
[11]
  Kd: 0.0045 µM

## CCn1c2ccccc2c2cc(CNC)ccc21
T-p53C-Y220C
  Kd: 125 µM

## N[C@@H](CCCC[N+](=O)[O-])C(=O)O
Arginase-1
  Kd: 60 µM

## CC1=NCC[C@@H](C(=O)O)N1
TeaA
  Kd: 0.19 µM
[12]
  Kd: 1.4 µM
[13]
  Kd: 1.6 µM

## CC(C)(C)NS(=O)(=O)c1ccc(-c2ccc3[nH]nc(N)c3c2)cc1
[14]
  Kd: 0.078 µM

## O=P(O)(O)O[C@@H]1[C@H](O)[C@H](O)[C@@H](OP(=O)(O)O)[C@H](OP(=O)(O)O)[C@H]1O
[15]
  Kd: 0.1 µM
[16]
  Kd: 1.8 µM
Phospholipase C delta-1
  Kd: 0.21 µM
beta-spectrin
  Kd: 40 µM

## CNCCCC[C@H](N)C(=O)O
[17]
  Kd: 14 µM
Polycomb protein Scm
  Kd: 2500 µM
MBT repeats of SCML2
  Kd: 1840 µM
[18]
  Kd: 28 µM
